The values that follow are results of earlier work, collected in publication PMC12609579, “Acute Myeloid Leukemia: A Key Role of DGKα and DGKζ in Cell Viability” (Cells, 2025).

A word on the Ki: it is the dissociation constant of the complex between target and ligand, obtained from inhibition or displacement.

Structures are written as SMILES.

The target in this series is dopamine D2 receptor. To be noted: read-out: Ki D2; cited from earlier work.

In the case of `CCN(CC)CCNC(=O)c1cc(Cl)c(N)cc1OC` [metoclopramide], the Ki is 28.8 nM.
